According to ChEMBL document CHEMBL1150326 (Bioorg Med Chem, 2008):

How the values were obtained:
CCRF-CEM [1] = test: Cytotoxicity against human CCRF-CEM cells after 72 hrs by XTT assay; format: functional, cell-based
In short: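 Leukaemic CCRF-CEM cells and their taxol- and vinblastine-resistant sublines exposed for 72 h. XTT assay read at 450 and 630 nm after 6 h with phenazine methosulfate-XTT at 37 °C. IC50 obtained by the median-effect principle from six or seven concentrations, in duplicate or triplicate.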

CCRF-CEM [2] = test: Cytotoxicity against vinblastine-resistant human CCRF-CEM cells after 72 hrs by XTT assay
HCT-116 = test: Cytotoxicity against human HCT116 cells after 72 hrs by SRB assay; format: functional, cell-based
In short: (§1)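 Solid tumour cells (breast MX-1, colon HCT116) exposed for 72 h. Growth measured by SRB assay. IC50 obtained by median-effect plot from six or seven concentrations, in duplicate or triplicate.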

CCRF-CEM [3] = test: Cytotoxicity against taxol-resistant human CCRF-CEM cells after 72 hrs by XTT assay
MX1 = test: Cytotoxicity against human MX1 cells after 72 hrs by SRB assay; format: functional, cell-based; in short: as §1

Compound `Nc1ccc(N(CCCl)CCCl)cc1` has an IC50 (CCRF-CEM [1]) of 43.4 nM, an IC50 (CCRF-CEM [2]) of 25.7 nM and an IC50 (HCT-116) of 341 nM. For the same compound, the IC50 (CCRF-CEM [3]) was 33.8 nM and the IC50 (MX1) was 84.4 nM.
